Legend:
CETP [1] = target: T1, CETP (Homo sapiens, UniProt P11597); test: Whole serum CETP activity assay (tritiated cholesteryl ester); type: biochemical; parameters: Blood was obtained from healthy volunteers recruited from the personnel of Monsanto Company; from tissue; host or cells: pooled human EDTA plasma or serum from healthy volunteers
T1 sequence (P11597 18-493): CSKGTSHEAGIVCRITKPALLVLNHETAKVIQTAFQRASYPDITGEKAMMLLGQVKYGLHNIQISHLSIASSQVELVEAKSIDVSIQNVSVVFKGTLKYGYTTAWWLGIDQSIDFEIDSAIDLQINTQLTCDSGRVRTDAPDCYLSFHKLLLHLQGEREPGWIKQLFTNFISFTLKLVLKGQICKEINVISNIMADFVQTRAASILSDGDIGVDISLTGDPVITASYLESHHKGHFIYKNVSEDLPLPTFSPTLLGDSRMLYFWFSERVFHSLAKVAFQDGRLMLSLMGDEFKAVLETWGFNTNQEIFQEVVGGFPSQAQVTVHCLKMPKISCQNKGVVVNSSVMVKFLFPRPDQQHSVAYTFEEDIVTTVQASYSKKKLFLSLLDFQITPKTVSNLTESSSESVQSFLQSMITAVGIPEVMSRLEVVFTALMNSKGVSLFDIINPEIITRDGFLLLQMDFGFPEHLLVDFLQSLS
Experimental: Whole Serum CETP Activity Assay (Tritiated Colesterol Eter)
Blood was obtained from healthy volunteers recruited from the personnel of Monsanto Company, Saint Louis, Mo. Blood was either collected in tubes containing EDTA (EDTA plasma pool) or without (spun to form the serum pool). The EDTA human plasma pool or human serum pool, previously stored at −20° C., was thawed at room temperature, and centrifuged for 5 minutes to remove any particulate matter. Tritiated HDL, radiolabeled in the cholesteryl ester moiety ([^13H]CE-HDL) as described by Morton and Zilversmit (J. Biol. Chem., 256, 11992-95 (1981)), was added to the plasma or serum to a final concentration of (25 μg/ml cholesterol). […] Radioactivity was measured on a microplate scintillation counter (TopCount, Packard, Meriden, Conn.). […] The maximum percent transfer (in the control wells) was determined using the following equation: [formula] The percent of control transfer determined in the wells containing inhibitor compounds was determined as follows: [formula] IC50 values were then calculated from plots of % control versus concentration of inhibitor compound. Examples of IC50 values determined by this method are specified in Table 10 CETP Activity In Vitro

CETP [2] = target: T1, CETP; test: CETP activity in vitro ([3H]CE transfer from HDL to LDL); type: biochemical; parameters: made in house; host or cells: CHO cells (serum-free conditioned medium); conditions: CETP activity assay in vitro; read-out: CEPT Activity Assay IC50
Experimental: The ability of compounds to inhibit CETP were assessed using an in vitro assay that measured the rate of transfer of radiolabled cholesteryl ester ([3H]CE) from HDL donor particles to LDL acceptor particles. Details of the assay are provided by Glenn et al. (“Quantification of Cholesteryl Ester Transfer Protein (CETP): A) CETP Activity and B) Immunochemical Assay of CETP Protein,” Meth. Enzymol., Glenn and Melton (Meth. Enzymol., 263, 339-351 (1996)). CETP was obtained from the serum-free conditioned medium of CHO cells transfected with a cDNA for CETP (Wang, S, et al. J. Biol Chem. 267, 17487-17490 1992). To measure CETP activity, [^3H]CE-labeled HDL, LDL, CETP and assay buffer (50 mM tris(hydroxymethyl)aminomethane, pH 7.4; 150 mM sodium chloride; 2 mM ethylenediamine-tetraacetic acid; 1% bovine serum albumin) were incubated in a volume of 200μ, for 2 hours at 37° C. in 96 well plates. LDL was differentially precipitated by the addition of 50 μl of 1% (w/v) dextran sulfate/0.5 M magnesium chloride, mixed by vortex, and incubated at room temperature for 10 minutes. The solution (200 μl) was transferred to a filter plate (Millipore). After filtration, the radioactivity present in the precipitated LDL was measured by liquid scintillation counting. […] The rate of [^3H]CE transfer using this assay was linear with respect to time and CETP concentration, up to 25-30% of [^3HCE transferred. […]

SMILES: OC(CN(Cc1cccc(OC(F)(F)C(F)F)c1)c1cccc(Oc2ccccc2)c1)C(F)(F)F (centres unmarked) [Inhibitor 1-1N]
- IC50 (CETP [1]): 6.9 µM
- IC50 (CETP [2]): 0.15 µM
